Assay [1] addresses microtubules polymerized from purified tubulin. Briefly: co-sedimentation; Syn 0.5-32 μM incubated 20 min at 37 °C with paclitaxel-stabilized preformed MTs (4 μM tubulin dimers), 70000 x g 15 min 25 °C; Syn in supernatant and pellet by western blot; bound versus free fitted to a standard binding equation; apparent Kd. (In general: Immunoblotting shows a protein as a band on a membrane.)

In assay [2] the target is tubulin (free αβ dimers; α2β2 tetramer).

With “α-Synuclein, wild type (recombinant) (from UniProt P37840 1-140) (natural protein)”, in assay [1], the Kd stood at 7.48 µM. In assay [2], this substance registered an MT catastrophe frequency by VE-DIC microscopy, tubulin 10 μM, preincubated Syn 0-10 μM (0.16 without Syn) of 1.04 min⁻¹; an MT catastrophe frequency by VE-DIC microscopy, tubulin 15 μM, preincubated Syn 0-15 μM (0.09 without Syn) of 0.27 min⁻¹; an MT growth rate by VE-DIC microscopy, tubulin 10 μM, preincubated Syn 0-10 μM (1.2 without Syn) of 1.38 μm/min; an MT growth rate by VE-DIC microscopy, tubulin 15 μM, preincubated Syn 0-15 μM (1.1 without Syn) of 1.38 μm/min.

(Values after article PMC5024109.)
